The text below walks through data of paper PMC4167179 (Results in Pharma Sciences, 2012).

Sequences of proteins named here, by UniProt entry; tags and fusion partners are left off. A change or cut given only in a name is not applied to a line headed by its entry.
UniProt P01275: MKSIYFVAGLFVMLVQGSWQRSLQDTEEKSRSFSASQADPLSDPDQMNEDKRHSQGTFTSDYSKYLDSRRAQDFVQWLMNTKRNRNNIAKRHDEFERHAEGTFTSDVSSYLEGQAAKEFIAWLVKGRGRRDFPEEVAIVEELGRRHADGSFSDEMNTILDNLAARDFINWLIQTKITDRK

This experiment has as its target T1, GLP-1 receptor (Rattus norvegicus, UniProt P32301).
T1 sequence (P32301 22-463): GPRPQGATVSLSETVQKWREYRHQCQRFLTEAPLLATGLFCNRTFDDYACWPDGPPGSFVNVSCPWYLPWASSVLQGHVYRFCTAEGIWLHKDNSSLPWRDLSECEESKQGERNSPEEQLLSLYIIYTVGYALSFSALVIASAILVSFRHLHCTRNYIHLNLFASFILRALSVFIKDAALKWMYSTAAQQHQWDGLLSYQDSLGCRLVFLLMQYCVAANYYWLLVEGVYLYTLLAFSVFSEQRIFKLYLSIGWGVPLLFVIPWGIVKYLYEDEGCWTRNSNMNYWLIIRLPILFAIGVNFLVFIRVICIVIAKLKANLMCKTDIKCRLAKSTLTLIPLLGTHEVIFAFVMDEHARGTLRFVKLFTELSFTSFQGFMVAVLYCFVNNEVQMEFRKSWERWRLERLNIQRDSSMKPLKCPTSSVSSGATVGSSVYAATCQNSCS
Kind of experiment: Adenylyl cyclase. The class given is biochemical. The following applies: read-out: In vitro cAMP stimulation in plasma membranes of rat β-cell line RIN-m5F, EC50; 30 °C, 10 min, 10 μM GTP; mean ± SEM of three experiments.

Consider “GLP-1-(7-36)-(T11Q–Q23N)-amide-Q^11-PEG 5 kDa (HAEGQFTSDVSSYLEGNAAKEFIAWLVKGR; Glucagon-like peptide 1(7-36) C-terminal amide; 5 kDa PEG at Q11; UniProt P01275 98-127, looked up, variant T11Q Q23N)”, for which the concentration for a half-maximal effect (EC50) (in general, the concentration needed to bring the measured effect to its halfway point) worked out at 153 ± 3 nM.
